Reference: patent US12083115B2, “Methods for treating neurological symptoms associated with lysosomal storage diseases” (Genzyme Corporation, priority 2020, dated 2024)

Protein sequences, listed by entry. Tags and fused reporters are not part of them. Lines headed by an entry give the natural chain unless they say otherwise; changes in a name come on top.
UniProt Q16739: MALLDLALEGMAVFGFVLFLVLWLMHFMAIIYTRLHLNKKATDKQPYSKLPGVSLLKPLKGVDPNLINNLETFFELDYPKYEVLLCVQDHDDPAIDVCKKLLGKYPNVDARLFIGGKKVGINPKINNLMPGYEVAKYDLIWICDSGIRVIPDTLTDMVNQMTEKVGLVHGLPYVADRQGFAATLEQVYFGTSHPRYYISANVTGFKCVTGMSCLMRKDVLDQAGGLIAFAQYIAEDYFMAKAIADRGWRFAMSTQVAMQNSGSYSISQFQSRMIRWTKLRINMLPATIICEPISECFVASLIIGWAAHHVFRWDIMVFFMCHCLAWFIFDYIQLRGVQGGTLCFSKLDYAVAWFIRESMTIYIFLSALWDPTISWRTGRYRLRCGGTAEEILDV

What was measured:
[1] = tested on: plasma GM3 (GM3 ganglioside); assay: Study 2: plasma GM3 pharmacodynamics; type: in vivo, human; conditions: Day 15
Experimental: (§1) Study 2 was a single-center, double-blind, randomized, placebo-controlled, sequential ascending repeated-dose study of the safety, tolerability, PK, and pharmacodynamics of Compound 2 in healthy adult male and female volunteers.
(§2) The study enrolled and randomized 36 healthy adults (19 men and 17 women) (n=9 each to group). The subjects were randomized to receive once-daily doses of Compound 2 at 5, 10, or 20 mg (provided as 5-mg capsules of the L-malic salt form) or placebo for 14 days after at least a 10-hour fast.
(§3) Blood was sampled for plasma concentrations of Compound 2 as follows: Day 1 at 0, 0.5, 1, 2, 3, 4, 5, 6, 8, 10, 12, and 16 hours post-dose; On Days 2-5, 8, 11, and 13, at 0 h; On Day 14, at 0.5, 1, 2, 3, 4, 5, 6, 8, 10, and 12 hours post-dose; On Days 15-17, at 24, 48, and 72 hours, respectively, after the Day 14 dose. Urine samples were collected for analysis of Compound 2 concentrations on Day 1 (0 hours post-dose) and continuously on Day 14 from 0-24 hours post-dose. Pharmacodynamic endpoints (plasma GL-1, GL-3, and GM3 concentrations) were assessed on Days 1-5, 8, 11, 13, and 14, at 0 hours […]; and on Day 15, at 24 hours after the Day 14 dose.

[2] = molecular target: glucosylceramide synthase (Homo sapiens (Human), UniProt Q16739); assay: Glucosylceramide synthase activity microsomal assay; type: biochemical; conditions: microsomes from A375 human melanoma cells; read-out: GCS IC50
From the text: Inhibition of glucosylceramide synthase activity can be measured with one or more assays. A first assay is a microsomal assay that directly measures the conversion of ceramide to glucosylceramide by HPLC. Microsomes are a source of glucosylceramide synthase activity in the microsomal assay. A second assay is a cell based, phenotypic assay that monitors cell surface expression of the downstream lipid GM3 by antibody mediated immunofluorescence. Specific protocols are provided below.
An enzyme assay using microsomes as a source of glucosylceramide synthase activity. Fluorescent ceramide substrate is delivered to membrane-bound enzyme as a complex with albumin. After reaction, ceramide and glucosylceramide are separated and quantitated by reverse-phase HPLC with fluorescence detection. Enzymatic activity is assessed using a fluorescent labeled substrate and microsomes as a source of glucosylceramide synthase. […] Separation and quantitation of substrate and product (glucosylceramide) are achieved by reverse-phase HPLC with fluorescence detection. […]
The reaction is stopped by the addition of 150 μL of 100 μM C8-ceramide in 50% aq. isopropanol; 10 μL of the final mix is analyzed on HPLC (with fluorescence detector). […] Fluorescence is detected with λex=470 nm and λem=530 nm. […] The percent conversion of substrate to product is used as the readout for inhibitor testing. […]

[3] = tested on: plasma GL-3 (globotriaosylceramide); assay: Study 2: plasma GL-3 pharmacodynamics; type: in vivo, human; conditions: Day 15
Experimental: as §1, §2, §3

[4] = Study 2: ascending repeated-dose PK in healthy adults; type: in vivo, human
Experimental: as §1, §2, §3

[5] = Study 1 Part 1: ascending single-dose PK in healthy men; type: in vivo, human; conditions: for CL/F, Mean (SD): healthy men
From the text: (§4) Study 1 was a 2-part single-center trial in healthy adult male volunteers. Part 1 was a double-blind, randomized, placebo-controlled sequential ascending single-dose study of Compound 2 for safety, tolerability, and PK. Part 2 was an open-label, single-cohort, randomized, 2-sequence, 2-period, 2-treatment crossover study of Compound 2 for PK with and without a high-fat meal.
Part 1 of the study enrolled and randomized 55 healthy men (placebo, n=14; 2-, 5-, 15, 25-, 50, and 100-mg doses, n=6 each; 150-mg dose, n=5). Eight healthy men participated in Part 2.
In Part 1, the subjects were randomized to receive 2, 5, 15, 25, 50, 100, or 150 mg of Compound 2 (L-malic salt form, i.e., expressed under L-malic salt form) or matching placebo on the morning of the first day after at least a 10-hour fast. In Part 2, the subjects were randomized to receive a single oral dose of 5 mg Compound 2 either while fasting (at least 10 hours before and 4 hours after administration) or 30 minutes after a standardized high-fat breakfast (˜815 kcal). […]
In Study 1, Part 1, blood was sampled for plasma concentrations of Compound 2 at the time of study drug administration (0 hour) and 0.5, 1, 2, 3, 4, 5, 6, 8, 10, 12, 16, 24, 48, 72, and 96 hours post-dose. Urine samples were collected for analysis of Compound 2 concentrations beginning 2 hours before study drug administration through 48 hours afterward.

[6] = tested on: plasma GL-1 (glucosylceramide); assay: Study 2: plasma GL-1 pharmacodynamics; type: in vivo, human; conditions: Day 15
Experimental: as §1, §2, §3

[7] = Study 1 Part 2: PK with and without a high-fat meal; type: in vivo, human; conditions: 5 mg single dose
Experimental: as §4
In Part 1, the subjects were randomized to receive 2, 5, 15, 25, 50, 100, or 150 mg of Compound 2 (L-malic salt form, i.e., expressed under L-malic salt form) or matching placebo on the morning of the first day after at least a 10-hour fast. In Part 2, the subjects were randomized to receive a single oral dose of 5 mg Compound 2 either while fasting (at least 10 hours before and 4 hours after administration) or 30 minutes after a standardized high-fat breakfast (˜815 kcal). After a 7-day washout period, participants were crossed over to the other condition.
In Study 1, Part 2, blood was sampled for plasma concentrations if Compound 2 at 0, 0.5, 1, 2, 3, 4, 5, 6, 8, 10, 12, 16, 24, and 48 hours post-dose.

[8] = Day 14, 4-fold dose increase (5-20 mg)
[9] = 75-fold dose increase (2 to 150 mg)

CC(C)(NC(=O)O[C@@H]1CN2CCC1CC2)c1csc(-c2ccc(F)cc2)n1 [Compound 2, (S)-quinuclidin-3-yl 2-(2-(4-fluorophenyl)thiazol-4-yl)propan-2-ylcarbamate]
GM3, point estimate of treatment ratio ([1]; 5 mg vs placebo): 0.56 | GM3, point estimate of treatment ratio ([1]; 10 mg vs placebo): 0.49 | GM3, point estimate of treatment ratio ([1]; 20 mg vs placebo): 0.40 | IC50 [2]: 60.1 µM | GL-3, point estimate of treatment ratio ([3]; 5 mg vs placebo): 0.61 | GL-3, point estimate of treatment ratio ([3]; 10 mg vs placebo): 0.69 | GL-3, point estimate of treatment ratio ([3]; 20 mg vs placebo): 0.67 | CLR(0-24) fold lower than observed plasma CL/F ([4]; After 14 once-daily doses, 5-20 mg): 3.18-3.86 fold | fold increase in geometric mean AUC0-24 [4, 8]: 3.69 fold | fold increase in geometric mean Cmax [4, 8]: 3.76 fold | CL/F, Mean (SD) ([5]; 2 mg single dose, N = 6): 6.43 (1.41) L/h | CL/F, Mean (SD) ([5]; 5 mg single dose, N = 6): 5.86 (1.01) L/h | CL/F, Mean (SD) ([5]; 15 mg single dose, N = 6): 5.85 (1.89) L/h | CL/F, Mean (SD) ([5]; 25 mg single dose, N = 6): 5.18 (1.31) L/h | CL/F, Mean (SD) ([5]; 50 mg single dose, N = 6): 5.75 (2.01) L/h | CL/F, Mean (SD) ([5]; 100 mg single dose, N = 6): 5.38 (1.25) L/h | CL/F, Mean (SD) ([5]; 150 mg single dose, N = 5): 5.80 (1.55) L/h | fold increase in geometric mean AUCinf [5, 9]: 85.9 fold | fold increase in geometric mean AUClast [5, 9]: 89.2 fold | fold increase in geometric mean Cmax [5, 9]: 97.3 fold | GL-1, point estimate of treatment ratio ([6]; 5 mg vs placebo): 0.39 | GL-1, point estimate of treatment ratio ([6]; 10 mg vs placebo): 0.32 | GL-1, point estimate of treatment ratio ([6]; 20 mg vs placebo): 0.23 | Fed/fasted geometric mean ratio, AUClast [7]: 0.91 | Fed/fasted geometric mean ratio, Cmax [7]: 0.92
